Source: patent US5696093A (CRC for Biopharmaceutical Research Pty Limited, priority 1994, dated 1997)

Sequences of proteins named here, by UniProt entry; tags and fusion partners are left off.
UniProt P49146, whole entry: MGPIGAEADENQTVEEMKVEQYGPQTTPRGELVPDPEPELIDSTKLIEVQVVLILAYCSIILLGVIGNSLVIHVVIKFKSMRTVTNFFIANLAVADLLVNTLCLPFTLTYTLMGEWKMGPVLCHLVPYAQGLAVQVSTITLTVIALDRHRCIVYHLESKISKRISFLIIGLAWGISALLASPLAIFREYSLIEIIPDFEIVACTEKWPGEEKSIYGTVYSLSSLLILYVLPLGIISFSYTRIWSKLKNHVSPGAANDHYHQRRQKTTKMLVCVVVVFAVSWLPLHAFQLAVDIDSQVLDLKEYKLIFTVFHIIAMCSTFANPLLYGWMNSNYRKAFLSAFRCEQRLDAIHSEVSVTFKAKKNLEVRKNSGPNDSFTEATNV

Biological target: T1, neuropeptide Y Y2 receptor (Homo sapiens, UniProt P49146)
T1 construct: endogenous in cells; host or cells: SMS-KAN human neuroblastoma cells (whole cells; gift of Dr Thue Schwartz)
Assay: Competition with radiolabelled peptide YY for binding to SMS-KAN cells

neuropeptide Y-(13-32)
binding to Y2 receptor on SMS-KAN cells, in words: little binding
